Results as given in ChEMBL document CHEMBL4513216, “Probing the Open Global Health Chemical Diversity Library for Multistage-Active Starting Points for Next-Generation Antimalarials” (ACS Infect Dis, 2020).
Only a part of the results on these compounds is given; other tests are left out.

Tested on: HepG2
Experiment: Toxicity liver stage against HepG2, at 10uM
Type: cell-based
Design: test concentration 10 uM, cell line HepG2-A16-CD81EGFP
Conditions: human, hepg2, 10 µM
Outline: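 Uninfected HepG2-A16-CD81EGFP cells, 3 × 10^3 per well, 1536-well, plated on prespotted compound at 10 μM final, parasite-free screening media added to match infected plates; puromycin 10 μM positive, DMSO 0.5% negative; run in parallel with 48 h PbLuc assay at 37 °C, 5% CO2; viability by CellTiter-Glo luminescence, normalized to controls.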

Structure (SMILES)	INHIBITION
COc1ccc(OC)c(NC2CCN(Cc3ccc(Br)cc3)CC2)c1	12.6%
COc1ccccc1NC1CCN(Cc2nc(C)c(C)s2)CC1	12.9%
COc1ccccc1NC1CCN(Cc2ccc(Br)s2)CC1	-7.89%
CC1(C)CN(C2(CNC(=O)c3csnn3)CCCCC2)CCO1	12%
COc1ccc2[nH]c(C(=O)NCC3(N)CCCCC3)cc2c1	-1.31%
Cc1cccc(NC2CCN(Cc3nc(C)c(C)o3)CC2)c1	-6.03%
COc1ccc(OC)c(NC2CCN(C)CC2)c1	-137%
COc1cc(NC2CCN(C(C)c3nnc(C)o3)CC2)cc(OC)c1 (stereo not drawn)	3.23%
